Experimental findings from patent US7070788 are described below.

For assay [1], the target named is human TSH receptor (CHO-JP09 cells) (human) (UniProt P16473). Description: cell-based or functional assay.
The target of assay [2] is porcine TSH receptor (solubilized porcine thyroid membranes) (porcine) (UniProt Q8SPP9). Description: competitive displacement of 125I-bTSH from solubilized porcine thyroid membranes. A general note: In a radioligand displacement assay an active substance lowers the binding of a labelled ligand.

“bovine thyroid stimulating hormone (from UniProt P01217 25-120; P01223 21-132) (ligand)”: in assay [1], the cAMP stimulation in JP09 cells, EC50 turned out to be 0.71 ng/mL and the cAMP stimulation in JP09 cells, Relative potency (WT = 1) (fold (WT = 1)) turned out to be 9.4. This substance displayed an EC25 of inhibition of 125I-bTSH binding in assay [2] of 7.9 ng/mL.
